From patent US4717662A (priority 1985, dated 1988)

Protein sequences, listed by entry. Tags and fused reporters are not part of them. Residues count along the entry.
UniProt P06278, 30-512: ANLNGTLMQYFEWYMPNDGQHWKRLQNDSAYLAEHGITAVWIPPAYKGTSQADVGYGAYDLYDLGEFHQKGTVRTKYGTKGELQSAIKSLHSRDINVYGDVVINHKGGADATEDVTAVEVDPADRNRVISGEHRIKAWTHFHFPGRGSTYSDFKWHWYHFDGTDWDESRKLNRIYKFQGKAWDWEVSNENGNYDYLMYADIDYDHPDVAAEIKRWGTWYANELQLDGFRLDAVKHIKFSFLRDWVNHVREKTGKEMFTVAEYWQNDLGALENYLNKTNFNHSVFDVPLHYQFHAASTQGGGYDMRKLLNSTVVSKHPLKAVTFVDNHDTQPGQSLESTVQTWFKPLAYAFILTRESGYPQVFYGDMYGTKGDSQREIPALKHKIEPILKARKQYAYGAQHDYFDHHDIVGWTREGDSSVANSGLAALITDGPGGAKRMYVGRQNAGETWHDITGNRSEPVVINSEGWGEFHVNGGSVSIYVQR

Target: alpha-amylase (Bacillus licheniformis, UniProt P06278)
Details: pH 5.8; for relative stabilizing effect in words: 95° C., comparison among acids tested

In the case of O=C(O)c1ccccc1 [Benzoic acid, benzoic acid], the “(-Δ G°) stabilization free energy, R T ln F” value (95° C. (T = 368K)) is reported as 0.9 K cal/mole, the “relative stabilizing effect in words” value is reported as “least effective” and the “relative stabilizing effect in words” value (listed as benzoic acid) is reported as “least amount of stabilization”.

Where two headings read alike, the source gives them in different places.
